The list shows a part of the results, in another mix than the full data. Records with an inconclusive call do not appear. Entries that show only a call come without a potency. Calls of active or inactive are those of the source. Calls follow the shape of the full dose curve.
What follows are compounds tested against D(2) dopamine receptor (Homo sapiens) (UniProt P14416) (assay: Dopamine D2 receptor (DRD2) small molecule agonists, cell-based qHTS assay (AID 1963594; also: nearly all actives have a fitted effect of over 35% in size)). Details: HEK293-DRD2 cAMP HTRF, agonist mode, 30 min; series mostly up to 92.4 µM.
Description: National Center for Advancing Translational Sciences [NCATS]
Division of Preclinical Innovation [DPI]
U.S. Environmental Protection Agency [EPA]
National Institutes of Environmental Health Sciences [NIEHS]
National Toxicology Program [NTP]
U.S. Food and Drug Administration [FDA]
DRD2 is the D2 subtype of the dopamine receptor, which is coupled to Gi subtype of G protein-coupled receptor. This G protein-coupled receptor inhibits adenylyl cyclase activity. The DRD2-HEK293 cell line stably expressing D2 dopamine receptor can be used for screening agonists and antagonists of interactions between D2 and its ligands. The Hek293-DRD2 cAMP assay is based on HTRF technology. It measures changes of cAMP accumulation in response to Gi coupled GPCR activation or inhibition.
Tox21 Assay Protocol Summary:
DRD2-Hek293 cells were dispensed at 600 cells/3uL/well in 1536-well white plates using a Multidrop Dispenser. After the assay plates were incubated at a 37 C/5% CO2 incubator for 24 h, 1 uL of Ro20-1724 at final concentration of 0.1 mM was transferred to the assay plate by a Flying Reagent Dispenser. Following Ro20-1724 addition, 23 nL of compound dissolved in DMSO, positive controls or DMSO only was added to the assay plates via Wako pintool station. The assay plates were incubated at room temperature for 10 min. Next, 1 uL of NKH477 at 200nM was added into the plates. After the assay plates were incubated at room temperature for an additional 30 min, 2.5 ul/well of cAMP-d2 and 2.5 ul/well of anti-cAMP-cryptate were added respectively into the assay plates using a Flying Reagent Dispenser. The plates were incubated at room temperature for 1 h. The fluorescence intensity in the plates was measured at 340 nm excitation and 665 & 620 nm emission by an Envision plate reader.
Potency is read from the fitted curve at half-maximal effect.

Protein sequences, listed by entry. Tags and fused reporters are not part of them.
UniProt P14416, whole entry, looked up: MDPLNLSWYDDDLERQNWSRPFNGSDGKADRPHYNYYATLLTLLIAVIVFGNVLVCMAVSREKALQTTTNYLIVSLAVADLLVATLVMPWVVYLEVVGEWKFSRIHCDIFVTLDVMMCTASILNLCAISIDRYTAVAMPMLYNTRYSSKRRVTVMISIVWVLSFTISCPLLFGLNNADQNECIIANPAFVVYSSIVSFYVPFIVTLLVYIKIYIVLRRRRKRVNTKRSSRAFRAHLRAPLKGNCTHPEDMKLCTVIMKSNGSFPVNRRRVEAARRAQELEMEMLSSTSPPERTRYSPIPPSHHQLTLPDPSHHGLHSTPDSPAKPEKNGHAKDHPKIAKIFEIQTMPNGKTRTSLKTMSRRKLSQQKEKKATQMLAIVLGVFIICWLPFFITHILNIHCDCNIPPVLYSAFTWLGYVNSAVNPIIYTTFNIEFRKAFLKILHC

Row | SMILES | Potency | activation
1 | CC(C)CCCCCCCOP(OCCCCCCCC(C)C)Oc1ccccc1 | inactive | 
2 | O=[As]c1ccccc1 (stereo not drawn) | active: 37.1 µM | 
3 | CN(N=O)C(=N)N[N+](=O)[O-] | inactive | 
4 | CN(C(=O)Cc1ccc(Cl)c(Cl)c1)[C@H]1CC[C@@]2(CCCO2)C[C@@H]1N1CCCC1 | inactive | 
5 | CCCCC(CC)CO[P+](=O)OCC(CC)CCCC (stereo not drawn) | inactive | 
6 | CCCCO[P+](=O)OCCCC | inactive | 
7 | CCNC(C)Cc1ccc2c(c1)OCO2 (stereo not drawn) | inactive | 
8 | NC(=O)Nc1ccc([As](=O)(O)O)cc1 | inactive | 
9 | O=C(Cl)OCCOC(=O)Cl | inactive | 
10 | CC(C)OP(=S)(OC(C)C)SCCNS(=O)(=O)c1ccccc1 | inactive | 
11 | CN(C(=O)Cc1ccccc1)[C@H]1CC[C@@]2(CCCO2)C[C@@H]1N1CCCC1 | inactive | 
12 | ClP(Cl)c1ccccc1 | inactive | 
13 | CCCCCCCCCCCCCC[P+](CCCCCC)(CCCCCC)CCCCCC | inactive | 
14 | O=C(Cl)Oc1ccccc1 | inactive | 
15 | O=[N+]([O-])c1ccc(S(=O)(=O)O)c([N+](=O)[O-])c1 | inactive | 
16 | O=[P+](Oc1ccccc1)Oc1ccccc1 | inactive | 
17 | Cc1cc([N+](=O)[O-])c(O)c([N+](=O)[O-])c1 | inactive | 
18 | COC(=O)Cl | inactive | 
19 | O=[N+]([O-])c1ccc([N+](=O)[O-])cc1 | inactive | 
20 | COP(=S)(Cl)OC | inactive | 
21 | O=P(Cl)(Oc1ccccc1)Oc1ccccc1 | inactive | 
22 | O=P(Cl)(Cl)c1ccccc1 | inactive | 
23 | O=[p+]1oc2ccccc2c2ccccc21 (stereo not drawn) | inactive | 
24 | CCOP(=S)(CC)Sc1ccccc1 (stereo not drawn) | inactive | 
25 | N#CSc1ccc([N+](=O)[O-])cc1[N+](=O)[O-] | inactive | 
26 | CCC(C)(OOC(C)(C)C)OOC(C)(C)C |  | inactive: -2.93% [at 19 µM]
27 | CCCCOP(OCCCC)OCCCC | inactive | 
28 | CCOC(=O)Cl | inactive | 

Reference: PubChem BioAssay (Tox21)
